4 compounds from article PMC11085448 (Molecules, 2024) can be followed below.

Amino acid sequences for entries named in this document (tags omitted).
UniProt P35372, whole entry, looked up: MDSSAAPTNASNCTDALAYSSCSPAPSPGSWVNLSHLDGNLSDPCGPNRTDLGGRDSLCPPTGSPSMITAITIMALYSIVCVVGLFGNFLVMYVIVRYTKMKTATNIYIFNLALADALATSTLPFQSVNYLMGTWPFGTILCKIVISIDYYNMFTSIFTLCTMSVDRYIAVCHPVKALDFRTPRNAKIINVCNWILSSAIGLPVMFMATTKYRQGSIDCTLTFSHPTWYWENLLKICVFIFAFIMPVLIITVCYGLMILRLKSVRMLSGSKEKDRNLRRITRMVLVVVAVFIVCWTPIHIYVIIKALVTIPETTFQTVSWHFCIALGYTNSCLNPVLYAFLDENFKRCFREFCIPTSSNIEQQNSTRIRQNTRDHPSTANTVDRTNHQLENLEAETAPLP

This assay concerns the target human μ-opioid receptor (OPRM1) (Homo sapiens, UniProt P35372). As to the kind of experiment: forskolin-induced cAMP accumulation assay, MOR antagonist. The note with it: CHO-K1 human MOR, versus EC90 of fentanyl; for IC50: read-out: MOR Antagonist IC50 ± SEM; for MOR Antagonist %Imax ± SEM: Imax normalized to naltrexone. For orientation: cAMP levels reflect the balance of adenylyl cyclase and phosphodiesterase activity.

Where “and” joins values, the source holds several entries; their conditions need not be identical. Equal values may be shown once.

The term IC50 denotes the point on the concentration scale where inhibition reaches its midpoint. `CN[C@@H]1[C@H]2CCC[C@]1(c1cccc(O)c1)CCN2CCc1ccccc1` [1R,5R,9S-10, 3-((1R,5R,9S)-9-(Methylamino)-2-phenethyl-2-azabicyclo[3.3.1]nonan-5-yl)phenol]: the IC50 was above 10000 nM.

`N#CC[C@@H]1[C@H]2CCC[C@]1(c1cccc(O)c1)CCN2CCc1ccccc1` [1R,5S,9S-41, 2-((1R,5S,9S)-5-(3-Hydroxyphenyl)-2-phenethyl-2-azabicyclo[3.3.1]nonan-9-yl)acetonitrile]: the “MOR Antagonist %Imax ± SEM” value worked out at 124.7 ± 13.9% and the IC50 stood at 318 nM. Turning to `N[C@H]1[C@@H]2CCC[C@@]1(c1cccc(O)c1)CCN2CCc1ccccc1` [1S,5S,9R-3, 3-((1S,5S,9R)-9-Amino-2-phenethyl-2-azabicyclo[3.3.1]nonan-5-yl)phenol], the “MOR Antagonist %Imax ± SEM” value turned out to be 114.8 ± 5.5% and the IC50 is 709 nM. For `CN[C@H]1[C@@H]2CCC[C@@]1(c1cccc(O)c1)CCN2CCc1ccccc1` [1S,5S,9R-8, 3-((1S,5S,9R)-9-(Methylamino)-2-phenethyl-2-azabicyclo[3.3.1]nonan-5-yl)phenol], the “MOR Antagonist %Imax ± SEM” value was 136% and 136.5 ± 20.1%; the IC50 was 178 nM.
